The values that follow come from patent EP0121012A1, “Oral compositions” (UNILEVER PLC, priority 1983, dated 1984).

One assay deals with Osborne-Mendel rats. As to the kind of experiment: Rat caries study. In kind it is in vivo. The following applies: 1000 ppm F-, 21 days.
Assay [1] in a line: Dissolution of hydroxyapatite discs following fluoride treatment (phosphate release). Conditions: 1000 ppm F- solution, vs disc treated with buffer alone, means of triplicate, 30 min.

With sodium monofluorophosphate, the “Caries/ Rat” value with Osborne-Mendel rats (topical to molar teeth, cariogenic diet, only severe lesions (B & C) scored, water control 5.25) came to 3.69. The “% Reduction” value in the assay with Osborne-Mendel rats (reduction in caries based on the water control, topical) is 29.7%. Besides, the “% Reduction in Dissolution” value in assay [1] (pH 4.0) is reported as 26%; in assay [1] (pH 5.0), 23%; in assay [1] (pH 6.0), 22%; in assay [1] (pH 7.0), 20%.
